How the values were obtained:
[1] = test system: rat; test: Anti-stress activity: restraint ulcer in the rat; assay type: in vivo; conditions: 100 mg/kg i.p.
Description: BONFILS, S., LIEFOOGHE, GK, ROSSI, G. and LAMBLING, A. L'ulcère de contrainte du Rat blanc. Modifications de la fréquence lesionnelle par différents precedes opératoires et pharmacodynamiques. C.R. Soc. Biol., 151, 1149, 1957.
BONFILS, S., ROSSI, G., LIEFOOGHE, G. and LAMBLING, A., Ulcère experimental de contrainte, I. Méthodes, fréquence des lesions, modifications par certains precedes techniques et pharmacologiques. Rev. franç. Etudes clin. biol., 4,146, 1959.

[2] = test system: souris; test: Rotarod test
[3] = test system: 5-HT (dans tout le cerveau); test: Amount of serotonin (5-HT) in whole brain, spectrophotofluorometric; assay type: in vivo, souris; conditions: 100 mg/kg i.p.
Description: On a encore effectué des essais pour apprecier la quantite de serotonine (5-HT) libérée dans le cerveau lors de I'administration des produits de l'invention par comparaison aux résultats obtenus avec le 5-HTP. Les quantités de sérotonine ont été estimees par une méthode spectrophotofluorométrique, telle que décrite par Solomon et al. Biochem. Pharmacology 14, 831 (1965). Les résultats de ces essais sont rassemblés dans le Tableau 10 ci-après.
• * Chaque valeur représente la moyenne de quatre animaux d'experience (souris) • ** La concentration de 5-HT est exprimée par gramme de tissu frais (cerveau).

[4] = test system: souris; test: Anti-stress activity: milk-induced leucocytosis; assay type: in vivo; conditions: 100 mg/kg i.p.; 0,1 ml de lait s.c. before treatment; lait seulement 23866 ± 214

SMILES: N[C@@H](Cc1c[nH]c2ccc(O)cc12)C(=O)O [5-HTP, 5-hydroxytryptophane]
- Effet anti-ulcère chez le rat (18 heures sous contrainte) Indice d'Ul-cération ([1]; témoin 34): 30 (4)
- Effet anti-ulcère chez le rat (18 heures sous contrainte) % Ul-cération ([1]; témoin 90): 100%
- Essai à la tige Rotarod: Défaut de coordination musculaire observé (Nbre de souris) ([2]; 50 mg/kg (ip), 15 min): 1/5
- Essai à la tige Rotarod: Défaut de coordination musculaire observé (Nbre de souris) ([2]; 50 mg/kg (ip), 30 min): 1/5
- Essai à la tige Rotarod: Défaut de coordination musculaire observé (Nbre de souris) ([2]; 50 mg/kg (ip), 60 min): 0/5
- Essai à la tige Rotarod: Défaut de coordination musculaire observé (Nbre de souris) ([2]; 100 mg/kg (ip), 15 min): 4/5
- Essai à la tige Rotarod: Défaut de coordination musculaire observé (Nbre de souris) ([2]; 100 mg/kg (ip), 30 min): 3/5
- Essai à la tige Rotarod: Défaut de coordination musculaire observé (Nbre de souris) ([2]; 100 mg/kg (ip), 60 min): 3/5
- Quantités de 5-HT (dans tout le cerveau) ([3]; 15 min., Solution Saline 60,0, mean of 4 souris): 187,5
- Quantités de 5-HT (dans tout le cerveau) ([3]; 30 min., par gramme de tissu frais, Solution Saline 107): 248,6
- Quantités de 5-HT (dans tout le cerveau) ([3]; 60 min., par gramme de tissu frais, Solution Saline 100): 150,9
- Effet sur la leu-cocytose induite par le lait Moyenne T.L.C./Cmm [4]: 10100 ± 68 (10) /Cmm
